{"sequences": {"note": "The chains behind the UniProt entries cited, without tags or fusion partners.", "UniProt Q99873, whole entry": "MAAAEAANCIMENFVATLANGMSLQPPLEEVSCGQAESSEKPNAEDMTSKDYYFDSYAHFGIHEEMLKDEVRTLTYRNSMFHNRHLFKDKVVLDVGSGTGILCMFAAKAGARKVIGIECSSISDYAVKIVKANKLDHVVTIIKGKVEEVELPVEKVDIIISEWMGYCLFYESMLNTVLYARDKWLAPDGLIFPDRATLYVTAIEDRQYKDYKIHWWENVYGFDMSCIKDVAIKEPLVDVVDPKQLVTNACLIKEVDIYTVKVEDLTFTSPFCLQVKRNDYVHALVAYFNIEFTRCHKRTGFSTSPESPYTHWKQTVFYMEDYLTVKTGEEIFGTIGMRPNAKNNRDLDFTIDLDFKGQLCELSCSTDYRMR"}, "source": "PubChem BioAssay AID652257", "about": "(The Scripps Research Institute Molecular Screening Center, 2013)", "note": "The list shows a part of the results, in another mix than the full data. Active and inactive are the calls of the source.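 The calls were made as follows: active = inhibition above about 21% made by adding two undisclosed values (limit read from the data); inactive = the rest.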", "data": [{"target": "Protein arginine N-methyltransferase 1 (Homo sapiens) (UniProt Q99873)", "assay": "human PRMT1 activity-probe blockers – biochemical, fluorescence polarization, primary screen (AID 652257)", "settings": "recombinant PRMT1, activity-based probe fluorescence polarization; at 2.79 µM; stronger effect = higher value", "values": [{"smiles": "CCC(CO)(C(=O)OC1CN2CCC1CC2)c1ccccc1", "note": "(stereo not given)", "inhibition": "inactive: -0.79%"}, {"smiles": "COc1cccc(C(c2nnnn2C2CCCC2)N2CCC(n3c(=O)[nH]c4ccccc43)CC2)c1OC", "note": "(stereo not given)", "inhibition": "inactive: -3.6%"}, {"smiles": "COc1cc(OC)cc(C(=O)NCC2(N3CCOCC3)CCCCC2)c1", "inhibition": "inactive: -0.85%"}, {"smiles": "COc1cccc(C(=O)N(c2cc(C)cc(C)c2)C2CCN(C(=O)OC(C)(C)C)CC2)c1", "inhibition": "inactive: -0.18%"}, {"smiles": "CN1CCC(Nc2ccc(Cl)cc2)CC1", "inhibition": "inactive: 1.88%"}, {"smiles": "CN1CCC(Nc2ccc(F)c(Cl)c2)CC1", "inhibition": "inactive: 0.24%"}, {"smiles": "CCOc1ncccc1C(=O)NCC1(N2CCOCC2)CCCCC1", "inhibition": "inactive: 2.58%"}, {"smiles": "CCCOc1ccc(C(=O)NCC2(N(C)C)CCCCC2)cc1", "inhibition": "inactive: -1.6%"}, {"smiles": "O=c1[nH]c2ccccc2n1C1CCN(C(c2cc3ccccc3o2)c2nnnn2C2CCCC2)CC1", "note": "(stereo not given)", "inhibition": "inactive: 1.78%"}, {"smiles": "O=C(O)C1(Nc2ccccc2)CCN(Cc2ccccc2)CC1", "inhibition": "inactive: -3.01%"}, {"smiles": "NN(c1ccccc1)C1CCN(CCc2ccccc2)CC1", "inhibition": "inactive: -3.85%"}, {"smiles": "CC(C)(C)OC(=O)N1CCC(Nc2ccccc2)CC1", "inhibition": "inactive: 4.1%"}, {"smiles": "CC(C)(C)n1nnnc1C(c1ccnc2ccccc12)N1CCC(n2c(=O)[nH]c3ccccc32)CC1", "note": "(stereo not given)", "inhibition": "inactive: -2.56%"}, {"smiles": "CCN1CCC(Nc2cccc(F)c2)CC1", "inhibition": "inactive: 1.3%"}, {"smiles": "COc1ccc(C(c2nnnn2C2CCCCC2)N2CCC(n3c(=O)[nH]c4ccccc43)CC2)cc1", "note": "(stereo not given)", "inhibition": "inactive: -1.11%"}, {"smiles": "Cc1ccccc1NC1(C#N)CCN(Cc2ccccc2)CC1", "inhibition": "inactive: 1.96%"}, {"smiles": "Cn1c(=O)[nH]cc(N(CCCl)CCCl)c1=O", "inhibition": "inactive: -2.39%"}, {"smiles": "CN(C)c1ccc(C(=O)NCC2(N3CCCCC3)CCCCC2)cc1", "inhibition": "inactive: -1.58%"}, {"smiles": "O=C(NCC1(N2CCCCC2)CCCCC1)c1ccco1", "inhibition": "inactive: 3%"}, {"smiles": "O=c1[nH]c2ccccc2n1C1CCN(C(c2ccnc3ccccc23)c2nnnn2C2CCCCC2)CC1", "note": "(stereo not given)", "inhibition": "inactive: -2.74%"}, {"smiles": "COc1cc(OC)cc(C(=O)NCC2(N3CCCCC3)CCCCC2)c1", "inhibition": "inactive: -4%"}, {"smiles": "CCC(c1nnnn1C1CCCCC1)N1CCC(n2c(=O)[nH]c3ccccc32)CC1", "note": "(stereo not given)", "inhibition": "inactive: -4.86%"}, {"smiles": "CC(=O)N(c1ccccc1)C1CCNCC1", "inhibition": "inactive: -0.7%"}, {"smiles": "COc1cccc(C(c2nnnn2C2CCCCC2)N2CCC(n3c(=O)[nH]c4ccccc43)CC2)c1OC", "note": "(stereo not given)", "inhibition": "inactive: -1.66%"}, {"smiles": "Cc1ccc(NC2(C#N)CCN(Cc3ccccc3)CC2)cc1", "inhibition": "inactive: 0.81%"}, {"smiles": "Fc1ccccc1NC1CCN(Cc2ccccc2)CC1", "inhibition": "inactive: 2.67%"}, {"smiles": "Cc1ccc(C(=O)NCC2(N3CCCCC3)CCCCC2)o1", "inhibition": "inactive: 1.95%"}, {"smiles": "Cc1cc(N(CCCl)CCCl)ccc1C=O", "inhibition": "inactive: 2.91%"}, {"smiles": "O=c1[nH]c2ccccc2n1C1CCN(C(c2ccccc2)c2nnnn2C2CCCC2)CC1", "note": "(stereo not given)", "inhibition": "inactive: -0.55%"}, {"smiles": "CCCN1CCC(Nc2cc(OC)cc(OC)c2)CC1", "inhibition": "inactive: 13.3%"}, {"smiles": "c1ccc(CN2CCC(Nc3ccccc3)CC2)cc1", "inhibition": "inactive: 1.03%"}, {"smiles": "C/C(N)=N\\P(=O)(Oc1ccccc1)Oc1ccccc1", "inhibition": "inactive: -6.15%"}, {"smiles": "CN(C)C1(CNC(=O)c2cccc(C#N)c2)CCCCC1", "inhibition": "inactive: -3.05%"}, {"smiles": "CC(C)(C)n1nnnc1C(c1cccc2ccccc12)N1CCC(n2c(=O)[nH]c3ccccc32)CC1", "note": "(stereo not given)", "inhibition": "inactive: -4.35%"}, {"smiles": "CC(C)(C)OC(=O)N1CCC(N(C(=O)c2ccccc2)c2ccc(Cl)cc2)CC1", "inhibition": "inactive: -2.53%"}, {"smiles": "N#Cc1ccc(C(=O)NCC2(N3CCCCC3)CCCCC2)cc1", "inhibition": "inactive: 3.61%"}, {"smiles": "N/C(=N\\O)c1c(N)no[n+]1[O-]", "inhibition": "inactive: -2.85%"}, {"smiles": "COc1cccc(C(c2nnnn2C(C)(C)C)N2CCC(n3c(=O)[nH]c4ccccc43)CC2)c1OC", "note": "(stereo not given)", "inhibition": "inactive: -4.63%"}, {"smiles": "CCOC(=O)N1CCC(Nc2ccc(C)cc2)CC1", "inhibition": "inactive: 1.86%"}, {"smiles": "CCCCn1nnnc1C(c1cccc(OC)c1OC)N1CCC(n2c(=O)[nH]c3ccccc32)CC1", "note": "(stereo not given)", "inhibition": "inactive: -3.75%"}, {"smiles": "O=c1[nH]c2ccccc2n1C1CCN(C(c2cccs2)c2nnnn2C2CCCC2)CC1", "note": "(stereo not given)", "inhibition": "inactive: -2.45%"}, {"smiles": "O=C(OC1CN2CCC1CC2)C1c2ccccc2C=Cc2ccccc21", "note": "(stereo not given)", "inhibition": "inactive: -2.41%"}, {"smiles": "O=C(NCC1(N2CCOCC2)CCCCC1)c1cc(Br)ccc1Cl", "inhibition": "inactive: 0.53%"}, {"smiles": "COc1cc(C(=O)NCC2(N3CCOCC3)CCCCC2)cc(OC)c1C", "inhibition": "inactive: 4.54%"}, {"smiles": "CCCCn1nnnc1C(c1ccccc1)N1CCC(n2c(=O)[nH]c3ccccc32)CC1", "note": "(stereo not given)", "inhibition": "inactive: -0.27%"}, {"smiles": "O=c1[nH]c2ccccc2n1C1CCN(C(c2ccnc3ccccc23)c2nnnn2C2CCCC2)CC1", "note": "(stereo not given)", "inhibition": "inactive: -2.62%"}, {"smiles": "COc1ccc(C(=O)NCC2(N3CCOCC3)CCCCC2)cc1OC", "inhibition": "inactive: -0.54%"}, {"smiles": "NC(=O)C1(Nc2ccccc2)CCN(Cc2ccccc2)CC1", "inhibition": "inactive: 0.63%"}, {"smiles": "O=c1[nH]c2ccccc2n1C1CCN(C(c2cccs2)c2nnnn2C2CCCCC2)CC1", "note": "(stereo not given)", "inhibition": "inactive: 3.39%"}, {"smiles": "O=C(NCC1(N2CCCCC2)CCCCC1)c1cncc(Br)c1", "inhibition": "inactive: -3.86%"}, {"smiles": "CN1CCC(Nc2cccc(F)c2)CC1", "inhibition": "inactive: -0.56%"}, {"smiles": "CCCOc1ccc(C(=O)NCC2(N(C)C)CCCCC2)cc1OC", "inhibition": "inactive: 3.52%"}, {"smiles": "Cc1ccc(C(=O)NCC2(N(C)C)CCCCC2)o1", "inhibition": "inactive: -2.55%"}, {"smiles": "COc1ccc(C(c2nnnn2C2CCCC2)N2CCC(n3c(=O)[nH]c4ccccc43)CC2)cc1", "note": "(stereo not given)", "inhibition": "inactive: -1.09%"}, {"smiles": "CN(C)c1cccc(C(=O)NCC2(N3CCCCC3)CCCCC2)c1", "inhibition": "inactive: -2.6%"}]}]}
